Tested on: anesthetized rats
Assay: Blood pressure responses in anesthetized rats
Assay type: in vivo, rat
Details: infusion 183 p mol/kg/min

CC[C@H](C)[C@@H]1NC(=O)[C@H](CCCNC(=N)N)NC(=O)[C@H](CC(=O)O)NC(=O)[C@H]([C@@H](C)CC)NC(=O)[C@H](CCCNC(=N)N)NC(=O)CNC(=O)CNC(=O)[C@H](Cc2ccccc2)NC(=O)[C@@H](NC(=O)[C@H](CO)NC(=O)[C@H](CO)NC(=O)[C@@H](N)CCCNC(=N)N)CSSC[C@@H](C(=O)N[C@@H](CC(N)=O)C(=O)N[C@@H](CO)C(=O)N[C@@H](Cc2ccccc2)C(=O)N[C@@H](CCCNC(=N)N)C(=O)N[C@@H](Cc2ccc(O)cc2)C(=O)O)NC(=O)CNC(=O)[C@H](CC(C)C)NC(=O)CNC(=O)[C@H](CO)NC(=O)[C@H](CCC(N)=O)NC(=O)[C@H](C)NC(=O)CNC1=O [rANP(126-150), R--S--S--C--F--G--G--R--I--D--R--I--G--A--Q--S--G--L--G--C--N--S--F--R--Y, reference compound]
Blood Pressure: -39 ± 5
